Assay results: PubChem BioAssay AID704 (The Scripps Research Institute Molecular Screening Center, 2007)
The entries are a selection whose mix differs from that of the whole data set. Some results for these compounds are left out of this collection, so the calls shown say nothing about other tests. Activity calls are given as the source filed them.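 How the source made its calls: active means inhibition above the screen-wide mean plus 3 SD (cut at about 35% in these data); inactive means the rest.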

The chains behind the UniProt entries cited, without tags or fusion partners.
UniProt P05866, whole entry: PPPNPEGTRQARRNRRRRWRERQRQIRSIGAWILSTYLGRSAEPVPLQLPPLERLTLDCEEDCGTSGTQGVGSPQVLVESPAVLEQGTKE

Biological target: Protein Rev (Human immunodeficiency virus type 1 group M subtype B (isolate WMJ22)) (UniProt P05866)
Assay: disruptors of Rev peptide-RRE RNA complex – biochemical, FRET, protein-RNA interaction, primary screen (AID 704);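 further: 0% = median DMSO wells and 100% = median Neomycin B control wells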
Details: Rev peptide-RRE RNA binding, at 8 µM, hits give high values
How it was run: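 Assay system: Rev peptide and RRE RNA, both fluorescently labelled; times: 5 min preincubation and 15 min binding, 25 °C; detection: FRET, ex 480 nm, em 540 and 671 nm; read-out basis: % inhibition from 671/540 nm acceptor-to-donor ratio, scaled between controls; benchmarks: DMSO low control, neomycin B high control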

**Q.** With `CC(C)N1C(=O)CC2(CCN(CCOC(=O)C(O)(c3ccccc3)c3ccccc3)CC2)C1=O` as the compound, how does the inhibition read?
**A.** inactive: 4.32%

**Q.** `CN(C)c1cccc(C(=O)NCC2(N(C)C)CCCCC2)c1` was tested. Which inhibition did it give?
**A.** inactive: 6.25%

**Q.** `O=C(OC1CN2CCC1CC2)C(CO)(c1ccccc1)c1ccccc1` (stereo not drawn) was tested. Which inhibition did it give?
**A.** inactive: -7.72%
